The source of these data is patent US10071095B2, “1,2,4-triazolo [4,3-A] pyridine derivatives and their use for the treatment of neurological and psychiatric disorders” (JANSSEN PHARMACEUTICALS, INC., priority 2009, dated 2018).

Sequences of proteins named here, by UniProt entry; tags and fusion partners are left off. Residues count along the entry.
UniProt Q14416, 19-872 limits assumed: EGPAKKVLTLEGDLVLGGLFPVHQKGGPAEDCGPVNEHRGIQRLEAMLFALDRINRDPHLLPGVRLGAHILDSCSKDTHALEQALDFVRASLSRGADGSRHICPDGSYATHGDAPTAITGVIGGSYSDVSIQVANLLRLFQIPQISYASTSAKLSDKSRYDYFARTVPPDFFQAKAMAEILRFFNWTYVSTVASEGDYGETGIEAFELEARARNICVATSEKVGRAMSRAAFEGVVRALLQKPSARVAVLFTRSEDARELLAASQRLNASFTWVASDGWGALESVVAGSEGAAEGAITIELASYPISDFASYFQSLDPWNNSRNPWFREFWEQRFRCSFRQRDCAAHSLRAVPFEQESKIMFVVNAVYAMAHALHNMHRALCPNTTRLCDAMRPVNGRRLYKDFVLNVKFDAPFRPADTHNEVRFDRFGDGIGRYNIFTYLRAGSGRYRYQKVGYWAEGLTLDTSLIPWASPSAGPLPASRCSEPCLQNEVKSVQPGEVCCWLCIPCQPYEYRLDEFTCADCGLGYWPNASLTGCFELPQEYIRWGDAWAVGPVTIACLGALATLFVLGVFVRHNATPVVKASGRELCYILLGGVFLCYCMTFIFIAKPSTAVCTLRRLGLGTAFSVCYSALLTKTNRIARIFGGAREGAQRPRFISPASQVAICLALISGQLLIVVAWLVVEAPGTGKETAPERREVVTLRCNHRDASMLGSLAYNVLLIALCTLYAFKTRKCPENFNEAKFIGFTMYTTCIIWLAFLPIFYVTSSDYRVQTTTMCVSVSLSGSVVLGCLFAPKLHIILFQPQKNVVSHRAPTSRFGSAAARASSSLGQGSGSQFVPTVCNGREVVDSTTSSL

One test concerns the target human mGluR2 receptor (Homo sapiens, UniProt Q14416). Put plainly: [35S]GTPγS binding assay, positive allosteric modulation (GTPγS-PAM) in presence of EC20 glutamate. Type of test: biochemical. Particulars: in presence of glutamate at EC20; average pEC50 if more experiments; ‡ means tested once.
Test [1] relates to PCP-induced hyperlocomotion in male NMRI mice. Put plainly: Phencyclidine (PCP)-induced hyperlocomotion in mice (video tracking). Particulars: for Mice ED50 (mg/kg) PCP-Inh., estimated ED50 (footnote a): inhibition of PCP-induced hyperlocomotion, estimated ED50 values (n = 3 per dose; 4-fold separation between doses).

As for `CCCCc1nnc2c(C(F)(F)F)c(CN3CCC(c4ccccc4)CC3)ccn12`, the “GTPγS - hR2 PAM pEC50” value on human mGluR2 receptor came out at 7.55. For the same molecule, in test [1], the “inhibition of PCP-induced hyperlocomotion in mice (in words)” value (shortened to “inhibition”) is “inhibited” and the “Mice ED50 (mg/kg) PCP-Inh., estimated ED50 (footnote a)” value (shortened to “Mice ED50”) was 7.9 ^a) mg/kg.
As to `CC1(c2ccccc2F)CCN(Cc2ccn3c(CC(F)(F)F)nnc3c2Cl)CC1`, the “GTPγS - hR2 PAM pEC50” value at human mGluR2 receptor is listed as 7.05. In test [1], the “inhibition” value is “inhibited” and the “Mice ED50” value is reported as 3.2 ^a) mg/kg.
The matching figures for `CCCCc1nnc2c(C(F)(F)F)c(CN3CCN(c4ccc(F)cc4F)CC3)ccn12`: 6.92, “inhibited” and 3.1 ^a) mg/kg.
Regarding `CC1(c2ccc(F)cc2)CCN(Cc2ccn3c(CC4CC4)nnc3c2Cl)CC1`, the “GTPγS - hR2 PAM pEC50” value at human mGluR2 receptor came out at 6.4. In addition, in test [1], the “inhibition” value is listed as “inhibited” and the “Mice ED50” value is 7.9 ^a) mg/kg.
As to `Fc1ccc(N2CCN(Cc3ccn4c(CC5CC5)nnc4c3Cl)CC2)c(F)c1`, the GTPγS - hR2 PAM pEC50 on human mGluR2 receptor was 6.41 ‡. Moreover, in test [1], the “inhibition” value was “inhibited” and the “Mice ED50” value is recorded as 12.6 ^a) mg/kg.
As for `FC1(c2ccccc2)CCN(Cc2ccn3c(CC4CC4)nnc3c2Cl)CC1`, the “GTPγS - hR2 PAM pEC50” value at human mGluR2 receptor is reported as 6.37. In addition, in test [1], the “inhibition” value is “inhibited” and the “Mice ED50” value is 1.25 ^a) mg/kg.
Take `Clc1ccccc1C1CCN(Cc2ccn3c(CC4CC4)nnc3c2Cl)CC1`: on human mGluR2 receptor, the “GTPγS - hR2 PAM pEC50” value stood at 7.3. Also, in test [1], the “inhibition” value is “inhibited” and the “Mice ED50” value is 20 ^a) mg/kg.
The matching figures for `Fc1ccccc1C1CCN(Cc2ccn3c(CC4CC4)nnc3c2Cl)CC1`: 7.06, “inhibited” and 3.2 ^a) mg/kg.
For `Cc1c(CN2CCC(c3ccccc3)CC2)ccn2c(CC3CC3)nnc12`, in that order: 5.83 ‡, “inhibited” and 12.6 ^a) mg/kg.
